Drawing on PubChem BioAssay AID927 (National Center for Advancing Translational Sciences (NCATS), 2007), this text covers activity change, negative = inhibition for 23 compounds.

Chains of the proteins cited; added tags and fusions are not shown. Lines headed by an entry give the natural chain unless they say otherwise; changes in a name come on top.
UniProt O75604: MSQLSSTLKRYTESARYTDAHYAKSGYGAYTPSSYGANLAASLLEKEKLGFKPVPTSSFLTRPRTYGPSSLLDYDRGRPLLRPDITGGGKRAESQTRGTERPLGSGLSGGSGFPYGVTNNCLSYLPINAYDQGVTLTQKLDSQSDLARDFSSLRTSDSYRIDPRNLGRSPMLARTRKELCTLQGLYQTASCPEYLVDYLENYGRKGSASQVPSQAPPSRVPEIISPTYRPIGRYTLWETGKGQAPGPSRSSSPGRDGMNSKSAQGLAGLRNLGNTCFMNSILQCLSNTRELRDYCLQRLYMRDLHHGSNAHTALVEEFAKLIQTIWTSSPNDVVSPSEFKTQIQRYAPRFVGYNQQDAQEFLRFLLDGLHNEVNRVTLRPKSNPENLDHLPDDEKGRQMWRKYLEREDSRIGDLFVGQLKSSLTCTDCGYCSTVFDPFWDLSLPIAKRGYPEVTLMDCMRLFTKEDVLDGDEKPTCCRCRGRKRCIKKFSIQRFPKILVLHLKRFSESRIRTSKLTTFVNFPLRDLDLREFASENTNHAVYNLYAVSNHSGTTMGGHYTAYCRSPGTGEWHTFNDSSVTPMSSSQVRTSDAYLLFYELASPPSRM

Only a part is listed here, and it is no random draw. Activity calls are given as the source filed them. The call rests on the fitted dose curve; in most records, active means well fitted inhibition curve with a large enough effect; inconclusive means small, poorly fitted or top-dose-only effect; inactive means no such curve, though single readings can be large or run the other way.

The target of the assay is Ubiquitin carboxyl-terminal hydrolase 2 (Homo sapiens) (UniProt O75604). Briefly: qHTS Assay for Inhibitors of Ubiquitin-specific Protease USP2a. Further: nearly all actives have a fitted effect of over 60% in size. The following applies: USP2a enzymatic assay; at 38.3 µM (top of the series) unless noted. An excerpt:
NIH Molecular Libraries Screening Centers Network [MLSCN]
NIH Chemical Genomics Center [NCGC]
PI Name: Nicholson, Ben. Progenra Inc, Malvern, PA
Homeostasis of cellular proteins is maintained through a combination of synthesis and degradation. The pathway that accounts for the majority of protein degradation is the ubiquitin-proteasomal pathway. Ubiquitin (Ub) is highly conserved in all cells and the generation of a multi-Ub chain typically targets proteins for degradation by the proteasome. However, ubiquitination is highly reversible and dynamic. Deubiquitination, the reverse process, is catalyzed through the action of enzymes referred to as isopeptidases or deubiquitinating enzymes (DUBs). This group of enzymes is collectively responsible for maintaining adequate pools of free ubiquitin and regulating the ubiquitination status of cellular proteins. The class of DUBs referred to as the ubiquitin-specific proteases (USP) family functions endoproteolytically to cleave Ub chains from a wide range of protein substrates. USP2a deubiquitinates fatty acid synthase (FASN) which has recently been identified as an emerging oncology target. To identify inhibitors of USP2a a cell-free assay was employed.
The reporter enzyme chosen is phospholipase A2 (PLA2), which has an absolute requirement for a free amino terminus. Thus, fusion of a UBL to the N-terminus of PLA2 inactivates PLA2. When the UBL-PLA2 reporter enzyme is cleaved by USP2, the activated reporter can subsequently act on its substrate, which is the commercially available NBD C6-HPC (Invitrogen). Thus, this coupled assay gives a fluorescent read-out, which is generated through the cleavage of the PLA2 reporter enzyme. The assay, developed by Progenra, Inc. uses Ub-PLA2 and USP2a at near equal and low (nM) amounts and has been licensed for sale by LifeSensors, Inc. as the Ub-IsoPro1 kit.
NCGC Assay Protocol Summary:
The assay buffer, prepared fresh at the day of the assay, contains 20mM Tris-HCl pH 8.0, 2mM CaCl2, 2mM beta-Mercaptoethanol, 0.1% DMSO. 3ul of 40nM (20nM final) USP2 core, which is stored on ice, is dispensed into a medium-binding black solid Kalypsys 1,536 well plate using the Kalypsys dispenser. The assay plate is then pinned with 23nL compound with the Kalypsys pintool in columns 5-48. The controls are pinned as follows: column 1&2 two-fold dilutions of 2M NEM in duplicate; column 3 DMSO; column 4 2M NEM (final concentration 38.2mM). The assay plate is incubated at RT for 30min. Subsequently, 3uL of 40nM (20nM final) Ub-PLA2 and 40uM (20uM final) NBD C6-HPC (stored on ice and protected from light) were dispensed into the plate using the Kalypsys dispenser. Plates were read immediately (0 Hour) on an Envision (Perkin Elmer) plate reader using the following wavelengths Ex 460nm /Em 535nm. Then, the assay plates were incubated for 2.5 hours and read again on the Envision using the same settings
Data were normalized to the to AC100 inhibition (NEM). Concentration-response curves were fitted to the normalized data and the concentration-response curves were then classified based on curve quality (r2), response magnitude and degree of measured activity. The time zero reading was used to flag fluorescence artifacts.
Keywords: ubiquitination, deubiquitination, proteases, profluorescent, MLSMR, MLSCN, NIH Roadmap, qHTS, NCGC
For the compound `O=P(Nc1nccs1)(c1ccccc1)c1ccccc1`, the activity change, negative = inhibition was inactive: -0.752%.
Under `c1nnnn1CCn1cnnn1` stands inactive: -2.51%; under `O=C(OC1CN2CCC1CC2)c1cccc(Cl)c1` (stereo not drawn), inactive: 0.412%; under `COC(=O)c1cc2c(s1)N=C(c1ccccc1)N(C)P2(=O)N1CCOCC1` (stereo not drawn), inactive: -6.11%.
As for `O=P1(Nc2nc3ccc(Cl)cc3s2)COc2ccccc2O1` (stereo not drawn), the activity change, negative = inhibition was inactive: -0.25%.
Under `Cc1c2non([O-])c-2c(C)[n+](=O)[n+]1[O-]` stands inactive: -10.5%.
Under `CN(C(=O)Cc1ccccc1)[C@@H]1CC[C@@]2(CCCO2)C[C@H]1N1CCCC1` stands inactive: -11.9%.
Under `CCc1nc2c(n1)c1c(non1O)c1c2no[n+]1[O-]` stands inactive: -0.284%; under `COP1(=S)c2c(C)nn(CCC#N)c2N=C(c2ccc(F)cc2)N1C` (stereo not drawn), inactive: -2.28%; under `O=C(COc1ccccc1)OC1CN2CCC1CC2` (stereo not drawn), inactive: -2.48%.
Regarding `O=C(OC1CN2CCC1CC2)C12CC3CC(CC(C3)C1)C2` (stereo not drawn), the activity change, negative = inhibition was inactive: -0.564%.
Under `CN(C(=O)Cc1ccc(Cl)c(Cl)c1)[C@@H]1CC[C@@]2(CCCO2)C[C@H]1N1CCCC1` stands inactive: 5.85%; under `NC(=O)Nc1ccc([As](=O)(O)O)cc1`, inactive: -7.97% [at 17.1 µM].
Under `CCOP1(=S)c2c(C)nn(CCC#N)c2N=C(c2ccc(F)cc2)N1C` (stereo not drawn) stands inactive: -6.83%; under `O=P(Nc1nccs1)(c1ccccc1)c1nc2ccccc2s1` (stereo not drawn), inactive: -7.62%.
Under `CCOP1(=S)c2c(C)nn(CCC#N)c2N=C(c2ccccc2F)N1C` (stereo not drawn) stands inactive: 1.74%.
Regarding `O=P1(Nc2ncccn2)COc2ccccc2OC1`, the activity change, negative = inhibition is inactive: -4.25%.
Under `O=P1(Nc2ccc(Br)cn2)COc2ccccc2OC1` stands inactive: 0.395%.
Under `Cc1nn(-c2ccccc2)c2c1P(=O)(N1CCOCC1)N(C)C(c1ccccc1)=N2` (stereo not drawn) stands inactive: -0.979%; under `CN(C(=O)Cc1ccc(Cl)c(Cl)c1)[C@@H]1CCCC[C@H]1N1CCCC1`, inactive: 3.29% [middle of 4 runs]; under `CN(CCCl)Cc1cc(Cl)c(NC2=NCCN2)c(Cl)c1`, inactive: -7.7%.
As to `O=P1(Nc2ccccn2)COc2ccccc2OC1`, the activity change, negative = inhibition is inactive: -8.33%.
Regarding `Clc1n[nH]nc1-c1nn[nH][15n]1`, the activity change, negative = inhibition is inactive: -1.32%.
